Source: ChEMBL document CHEMBL1158408, “Large-scale application of high-throughput molecular mechanics with Poisson-Boltzmann surface area for routine physics-based scoring of protein-ligand complexes” (J Med Chem, 2009)

Target: Urokinase-type plasminogen activator (Homo sapiens, UniProt P00749)

SMILES	Ki
COc1ccc2ccc(C(=N)N)cc2c1OCC(N)=O	631 nM
[H]/N=C(\N)c1ccc2ccc(OC)c(OCCCBr)c2c1	6310 nM

More lines, now with the values ahead:

Ki	SMILES
25.1 nM	N=C(N)c1ccc2cc(C(=O)Nc3cccc(OC4CCCC4)c3)ccc2c1
1260 nM	N=C(N)c1ccc2cc(CCc3ccccc3)cc(Br)c2c1
1260 nM	N=C(N)c1ccc2cc(C3CC3c3ccccc3)ccc2c1 (stereo not given)
